Data taken from patent US10941187B2 (The United States of America, as represented by the …, priority 2001, dated 2021).

What was measured:
[1] = system: fasted, diabetic Zucker rats; experiment: Duration of in vivo insulinotropic action after intraperitoneal peptide; set-up: species or system rat; conditions: 0.4 nmol/kg i.p., up to 24 h
[2] = system: fasted, diabetic Zucker rats; experiment: Acute in vivo insulin response after intravenous peptide; set-up: species or system rat; conditions: 0.4 nmol/kg i.v.

## CC[C@H](C)[C@H](NC(=O)[C@H](Cc1ccccc1)NC(=O)[C@H](CCC(=O)O)NC(=O)[C@H](CCCCN)NC(=O)[C@H](C)NC(=O)[C@H](C)NC(=O)[C@H](CCC(N)=O)NC(=O)CNC(=O)[C@H](CCC(=O)O)NC(=O)[C@H](CC(C)C)NC(=O)[C@H](Cc1ccc(O)cc1)NC(=O)[C@H](CO)NC(=O)[C@H](CO)NC(=O)[C@@H](NC(=O)[C@H](CC(=O)O)NC(=O)[C@H](CO)NC(=O)[C@@H](NC(=O)[C@H](Cc1ccccc1)NC(=O)[C@@H](NC(=O)CNC(=O)[C@H](CCC(=O)O)NC(=O)CNC(=O)[C@@H](N)Cc1c[nH]cn1)[C@@H](C)O)[C@@H](C)O)C(C)C)C(=O)N[C@@H](C)C(=O)N[C@@H](Cc1c[nH]c2ccccc12)C(=O)N[C@@H](CC(C)C)C(=O)N[C@H](C(=O)N[C@@H](CCCCN)C(=O)NCC(=O)N[C@@H](CCCNC(=N)N)C(N)=O)C(C)C [GLP-1 Gly^8]
[1]
  duration of action on plasma insulin levels: intermediate between GLP-1 and exendin-4
[2]
  peak plasma insulin concentrations: potently increased plasma insulin concentrations
[2]; listed as peptide 1
  peak plasma insulin concentrations: more potent than equimolar GLP-1
